Results from publication PMC10573712, “Phosphorylation-Assisted Luciferase Complementation Assay Designed to Monitor Kinase Activity and Kinase-Domain-Mediated Protein–Protein Binding” (International Journal of Molecular Sciences, 2023).
Values joined by “and” are separate entries in the source; they are usually repeats but may differ in a detail not shown here. Equal values may be shown once.

The chains behind the UniProt entries cited, without tags or fusion partners. Where a name states a change or a piece, a line headed by the entry shows the natural chain unless it says otherwise.
UniProt P45983: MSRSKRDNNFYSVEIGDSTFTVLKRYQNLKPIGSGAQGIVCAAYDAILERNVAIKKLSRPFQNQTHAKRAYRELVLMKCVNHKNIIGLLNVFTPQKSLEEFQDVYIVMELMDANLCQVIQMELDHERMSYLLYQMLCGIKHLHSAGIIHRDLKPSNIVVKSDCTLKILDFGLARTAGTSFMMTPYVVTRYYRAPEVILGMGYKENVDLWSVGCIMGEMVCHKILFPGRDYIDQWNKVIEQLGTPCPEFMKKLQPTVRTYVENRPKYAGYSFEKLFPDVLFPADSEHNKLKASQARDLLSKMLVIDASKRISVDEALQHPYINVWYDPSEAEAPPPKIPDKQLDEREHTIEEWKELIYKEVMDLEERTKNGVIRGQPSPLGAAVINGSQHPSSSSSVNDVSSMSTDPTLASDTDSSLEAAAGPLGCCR
UniProt Q16539, whole entry: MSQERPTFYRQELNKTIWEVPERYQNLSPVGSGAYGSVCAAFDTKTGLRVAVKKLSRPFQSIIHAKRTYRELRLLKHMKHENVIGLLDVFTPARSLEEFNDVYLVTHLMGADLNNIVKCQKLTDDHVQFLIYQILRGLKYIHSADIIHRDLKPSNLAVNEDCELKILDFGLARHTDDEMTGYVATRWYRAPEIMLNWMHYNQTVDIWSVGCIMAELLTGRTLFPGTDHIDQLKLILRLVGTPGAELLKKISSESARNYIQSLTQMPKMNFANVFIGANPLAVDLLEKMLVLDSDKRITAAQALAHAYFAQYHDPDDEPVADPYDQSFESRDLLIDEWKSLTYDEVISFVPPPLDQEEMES

How the values were obtained:
Format in all cases: biochemical
[1] = biological target: T1, JNK1 (Homo sapiens, UniProt P45983); experiment: JNK1–PDE4B-Sensor PhALC assay
T1 construct: made in house; host or cells: Rosetta2 (DE3) E. coli
Excerpt: Similar to what was described earlier with the RSK Sensor, to be able to monitor kinase docking for MAPKs, the NanoBit luciferase fragment complementation-based PPI assay concept was modified so that MAPK-docking-mediated phosphorylation of an artificial substrate sensor could also be monitored in a microplate reader. Briefly, a general MAPK phosphorylation target motif (S/TP) was positioned C-terminal from an MAPK-binding D-motif, or N-terminal from an F-motif, and this SENSOR construct was fused with the small fragment of the luciferase enzyme. […]
In the case of the RSK-PhALC assay the reaction mixture contained 0.5 µM 14-3-3-LgBiT RC, 1 µM VF-Sensor, 50 nM RSK2, 40 µM coelenterazine (#301-10 hCTZ, Prolume Ltd., Pinetop, AZ, USA), 1 mM DTT, 6 mg/mL BSA in 1X kinase buffer (50 mM HEPES, pH = 7.4; 100 mM NaCl; 5 mM MgCl2; 5% glycerol; and 0.05% Igepal). […] Measurements were performed using a BioTek Synergy 2 or Cytation 3-plate reader at 25 °C in white 96- or 384-well plates (SPL Life Sciences, Gyeonggi-do, Korea, #30196 or Greiner Microplate, Greiner Bio-One AG, Kremsmünster, Austria, #781904). […] The luminescence signal was monitored for 30–60 min and the slope from the initial linear region was calculated by linear regression. […] To quantify the rate of change in the signal during this early period, we used linear regression analysis to calculate the slope. […]

[2] = biological target: T2, p38α (Homo sapiens, UniProt Q16539); experiment: p38α–MEF2A-Sensor PhALC assay (D-groove); details: 10 μM inhibitor
T2 construct: made in house; host or cells: Rosetta2 (DE3) E. coli
Excerpt: (§1) Similar to what was described earlier with the RSK Sensor, to be able to monitor kinase docking for MAPKs, the NanoBit luciferase fragment complementation-based PPI assay concept was modified so that MAPK-docking-mediated phosphorylation of an artificial substrate sensor could also be monitored in a microplate reader. Briefly, a general MAPK phosphorylation target motif (S/TP) was positioned C-terminal from an MAPK-binding D-motif, or N-terminal from an F-motif, and this SENSOR construct was fused with the small fragment of the luciferase enzyme. In the recognition construct (RC), a WW domain binding specifically to the phosphorylated MAPK target motif was fused with the large fragment of the luciferase. […] (Figure 3A).
(§2) In the case of the MAPK-PhALC assays the reaction mixture contained 1 µM RC (WW-LgBiT RC), 1 µM MAPK-Sensor (SmBiT-constructs), 0.3–2 nM double-phosphorylated MAPKs, and 60 µM coelenterazine in 1X kinase buffer. […] The reaction was induced by the addition of ATP (at 0.1 or 1 mM final concentration) dissolved in 1X kinase buffer. […] The luminescence signal was monitored for 30–60 min and the slope from the initial linear region was calculated by linear regression. […] To quantify the rate of change in the signal during this early period, we used linear regression analysis to calculate the slope.

[3] = biological target: T2, p38α; experiment: p38α–FENEF-Sensor PhALC assay (F-groove); details: 10 μM inhibitor
Excerpt: as §1, §2

## Cc1cc(NC(=O)c2cccc(NC(=O)/C=C/CN(C)C)c2)ccc1Nc1nccc(-c2cccnc2)n1 [JNK-IN-8]
[1]
  IC50: 17 nM and 17.3 nM

## CN[C@@H]1C[C@H]2O[C@@](C)([C@@H]1OC)n1c3ccccc3c3c4c(c5c6ccccc6n2c5c31)C(=O)NC4 [staurosporin]
[2]
  Effect of inhibitor on kinase activity: unaffected
[3]
  Effect of inhibitor on kinase activity: unaffected
[1]; 10 μM inhibitor
  Effect of inhibitor on kinase activity: unaffected
